# From ChEMBL document CHEMBL1143706, “Design, synthesis, and biological evaluation of novel bifunctional C-terminal-modified peptides for delta/mu opioid receptor agonists and neurokinin-1 receptor antagonists” (J Med Chem, 2007)
# Assay: Ratio of IC50 for mu opioid receptor in GPI assay to IC50 for delta opioid receptor in MVD assay
# Format: functional
structure (smiles),measurement,value
C[C@@H](NC(=O)[C@@H](N)Cc1ccc(O)cc1)C(=O)NCC(=O)N[C@@H](Cc1ccccc1)C(=O)NNC(=O)[C@H](Cc1ccccc1)NC(=O)CNC(=O)[C@@H](C)NC(=O)[C@@H](N)Cc1ccc(O)cc1,Ratio IC50,3.2
